The record followed here is ChEMBL document CHEMBL6071183, “Neuroprotective Effect of 2-(Benzyloxy)arylureas Is Not Related to CypD Inhibition nor Suppression of mPTP Opening” (ACS Med Chem Lett, 2024).

By UniProt entry, the sequences of proteins in these tests, tags left out.
UniProt P62937, whole entry, looked up: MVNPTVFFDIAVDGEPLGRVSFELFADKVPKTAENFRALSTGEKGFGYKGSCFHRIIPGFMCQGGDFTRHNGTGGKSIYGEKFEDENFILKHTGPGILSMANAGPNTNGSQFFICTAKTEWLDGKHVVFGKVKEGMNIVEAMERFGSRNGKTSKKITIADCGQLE

The source made the active and inactive calls. No cut-off for these calls is given here.

For data set [1], the target named is T1, Peptidyl-prolyl cis-trans isomerase A (Homo sapiens, UniProt P62937). The experiment in a line: Inhibition of human N-terminal his-tagged CypA extracted from Escherichia coli BL21 (DE3) assessed as refolding of RNAase T1 at 20 uM by fluorescence based spectrofluorometry analysis relative to control.
Data set [2] addresses T1, Peptidyl-prolyl cis-trans isomerase A. Put plainly: Binding affinity to human N-terminal his-tagged CypA extracted from Escherichia coli BL21 (DE3) assessed as change in melting temperature at 20 uM by differential scanning fluorimetry analysis. On the technique in general: In DSF a fluorescence change marks the thermal transition of the protein.
The nature of data set [3]: Neurotoxicity in Abeta-induced C57BL/6 mouse at 5 uM by JC-1 assay relative to control. To be noted: in vivo. It counts as toxicity.

For orientation: inhibition means the change of the read-out against control, counted positive when it falls.

Turning to `O=C(Nc1ccc([N+](=O)[O-])cc1)Nc1ncccc1OCc1ccccc1`, in data set [1], the inhibition is 90%. Also, the result in data set [2] was Active.

Consider `O=C(NCCN1CCNCC1)Nc1ncccc1OCc1ccccc1`, for which the inhibition in data set [1] worked out at 90%.

For `O=C(Nc1ccccc1F)Nc1ncccc1OCc1cccc(Cl)c1`, the result in data set [2] was Active. The same compound returned an Activity in data set [3] of 89%.

In data set [3], `Cc1ccc(NC(=S)Nc2nccnc2OCc2cccc(F)c2)cc1` gave an Activity of 95%.

For `O=C(Nc1ccc([N+](=O)[O-])cc1)Nc1ncccc1OCc1cccc(Cl)c1`, the inhibition in data set [1] was determined as 90%.
